{
  "source": "paper PMC7150891",
  "about": "“Mertansine Inhibits mRNA Expression and Enzyme Activities of Cytochrome P450s and Uridine 5′-Diphospho-Glucuronosyltransferases in Human Hepatocytes and Liver Microsomes” (Pharmaceutics, 2020)",
  "key": {"UGT1A1 mRNA": {"tested_on": "UGT1A1 mRNA", "experiment": "UGT1A1 mRNA level in human hepatocytes after 48 h treatment (RT-PCR)", "settings": "Omeprazole 50 μM, Lot 321"}, "UGT1A4 mRNA": {"tested_on": "UGT1A4 mRNA", "experiment": "UGT1A4 mRNA level in human hepatocytes after 48 h treatment (RT-PCR)", "settings": "Omeprazole 50 μM"}},
  "data": [
    {"compound": "COc1ccc2[nH]c([S+]([O-])Cc3ncc(C)c(OC)c3C)nc2c1", "note": "(stereo not shown) [Omeprazole, omeprazole]", "values": [
      {"measurement": "UGT1A1 mRNA (Fold Change)", "setting": "UGT1A1 mRNA", "value": "4.05 ± 0.53", "unit": "Fold Change"},
      {"measurement": "UGT1A4 mRNA (Fold Change)", "setting": "UGT1A4 mRNA; Lot 319", "value": "3.31 ± 0.35", "unit": "Fold Change"},
      {"measurement": "UGT1A4 mRNA (Fold Change)", "setting": "UGT1A4 mRNA; Lot 321", "value": "4.13 ± 0.66", "unit": "Fold Change"},
      {"measurement": "UGT1A4 mRNA (Fold Change)", "setting": "UGT1A4 mRNA; Lot 361", "value": "3.7 ± 0.62", "unit": "Fold Change"}
    ]}
  ]
}
